Source: PMC6156383 (Frontiers in Psychiatry, 2018)

By UniProt entry, the sequences of proteins in these tests, tags left out. Where a name states a change or a piece, a line headed by the entry shows the natural chain unless it says otherwise.
UniProt P41146: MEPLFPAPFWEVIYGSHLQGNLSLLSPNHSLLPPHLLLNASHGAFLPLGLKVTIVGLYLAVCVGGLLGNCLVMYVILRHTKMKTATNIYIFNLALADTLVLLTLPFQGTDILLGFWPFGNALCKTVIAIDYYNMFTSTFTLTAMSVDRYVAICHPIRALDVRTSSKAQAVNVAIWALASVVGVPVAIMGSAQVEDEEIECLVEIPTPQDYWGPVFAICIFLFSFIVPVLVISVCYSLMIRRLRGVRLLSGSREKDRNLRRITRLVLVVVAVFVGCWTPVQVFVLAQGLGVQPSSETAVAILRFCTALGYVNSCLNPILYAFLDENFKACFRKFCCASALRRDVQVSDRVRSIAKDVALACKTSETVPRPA

Molecular target: T1, NOP receptor (Homo sapiens, UniProt P41146)
T1 construct: expressed in transfected cells
Experiment: [35S]GTPγS binding stimulation (agonist), CHO membranes
Assay type: biochemical
Conditions: [35S]GTPγS stimulation relative to standard agonist N/OFQ

**Q.** For “nociceptin/orphanin FQ [reference compound]”, which NOP % stim is on record?
**A.** 100%
